Results from ChEMBL document CHEMBL1154595, “Discovery of selective nonpeptidergic neuropeptide FF2 receptor agonists” (J Med Chem, 2009).

Amino acid sequences for entries named in this document (tags omitted). A change or cut given only in a name is not applied to a line headed by its entry.
UniProt Q9Y5X5: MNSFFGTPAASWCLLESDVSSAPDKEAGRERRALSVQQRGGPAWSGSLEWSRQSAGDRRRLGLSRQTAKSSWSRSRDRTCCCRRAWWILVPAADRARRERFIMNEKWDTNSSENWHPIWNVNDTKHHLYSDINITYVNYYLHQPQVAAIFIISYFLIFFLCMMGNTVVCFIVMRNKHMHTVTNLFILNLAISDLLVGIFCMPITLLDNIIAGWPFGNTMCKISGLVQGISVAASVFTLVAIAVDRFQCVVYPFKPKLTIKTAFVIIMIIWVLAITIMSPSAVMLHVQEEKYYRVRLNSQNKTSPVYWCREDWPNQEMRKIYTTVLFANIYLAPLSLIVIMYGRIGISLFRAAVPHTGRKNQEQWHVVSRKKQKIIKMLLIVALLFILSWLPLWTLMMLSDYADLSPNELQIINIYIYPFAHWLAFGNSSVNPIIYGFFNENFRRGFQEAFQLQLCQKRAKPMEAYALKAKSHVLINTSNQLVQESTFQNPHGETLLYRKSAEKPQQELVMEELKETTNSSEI

Biological target: Neuropeptide FF receptor 2 (Homo sapiens, UniProt Q9Y5X5)
Experiment: Agonist activity at human NPFF2 receptor expressed in cells assessed as beta-galactosidase levels after 5 days
Type: functional, cell-based
Outline: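 Functional R-SAT assay at human NPFF1 and NPFF2 receptors in agonist mode. Dose-response curves were built from seven concentrations, each tested in triplicate. Values are mean ± SEM of at least three independent experiments.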

**Q.** `N=C(N)N/N=C/c1ccc(Cl)c(C(F)(F)F)c1` was tested. Which EC50 did it give?
**A.** 501 nM
